According to patent publication US20080113014A1, “Method for Screening for Compounds Safe for Gastric Mucosa” (LTT BIO-PHARMA CO., LTD., priority 2004, published 2008):

Assay: Calcein leakage from calcein-encapsulating liposome in the presence of NSAIDs (membrane toxicity)
Conditions: 30° C., 10 min, fluorescence at 520 nm; order among the five NSAIDs of the same figure

## CS(=O)(=O)Nc1ccc([N+](=O)[O-])cc1Oc1ccccc1 [nimesulide]
  calcein leakage from the liposome (membrane toxicity), rank order: decreased in the same order
